This assay relates to LNCaP. The following applies: Homo sapiens, dose 40.0 mg/kg/day, route po, time 32.0 day.

Molecules are shown by their SMILES. Active and inactive are the calls of the source. The rule behind the calls is not given here.

In the case of `CNC(=O)c1ccc(N2C(=S)N(c3ccc(C#N)c(C(F)(F)F)c3)C(=O)C2(C)C)cc1F` [ENZALUTAMIDE], the inhibition result is “Active”.

(Values after ChEMBL document CHEMBL6127118, “Identification of Oral Bioavailable Coumarin Derivatives as Potential AR Antagonists Targeting Prostate Cancer” (J Med Chem, 2024).)
